Only a part is listed here, and it is no random draw. Activity calls are given as the source filed them. Cut-off read from the data, not from the text of the source: active = activation above about 5% (passing the limit was not always enough); inactive = the rest.
Biological target: Galanin receptor type 2 (Homo sapiens) (UniProt O43603)
Assay: human galanin receptor 2 activators – cell-based, primary screen (AID 803);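 note: 0% = vehicle buffer wells and 100% = reference agonist at full effect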
Conditions: GALR2-expressing cells, agonist activation read-out; at 5.6 µM; hits give high values

Sequences of proteins named here, by UniProt entry; tags and fusion partners are left off.
UniProt O43603, whole entry: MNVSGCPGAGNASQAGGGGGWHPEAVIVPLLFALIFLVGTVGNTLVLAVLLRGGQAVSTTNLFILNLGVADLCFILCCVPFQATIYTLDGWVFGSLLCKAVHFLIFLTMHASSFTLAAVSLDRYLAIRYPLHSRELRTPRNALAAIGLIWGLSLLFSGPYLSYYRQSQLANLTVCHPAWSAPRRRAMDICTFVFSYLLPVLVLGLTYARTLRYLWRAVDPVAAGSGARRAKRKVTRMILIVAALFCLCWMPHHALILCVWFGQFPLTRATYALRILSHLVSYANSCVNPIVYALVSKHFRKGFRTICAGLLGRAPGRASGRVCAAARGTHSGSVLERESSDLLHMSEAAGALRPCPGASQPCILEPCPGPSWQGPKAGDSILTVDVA

SMILES	activation
CP(=O)(Nc1ccccc1Br)Oc1ccccc1 (stereo not given)	inactive: -1.39%
CP(=S)(Nn1cnnc1)Oc1ccccc1 (stereo not given)	inactive: -0.09%
Cc1cc(SC(NC(=O)c2ccccc2)C(Cl)(Cl)Cl)nc(C(C)C)n1 (stereo not given)	inactive: -0.12%
CP(=O)(Nc1ccccn1)Oc1ccc(Cl)cc1 (stereo not given)	inactive: -2.33%
CCOC(=O)c1ccc(NP(C)(=O)Oc2ccc(OC)cc2)cc1 (stereo not given)	inactive: 0.62%
CCOP(C)(=S)SCC(=O)NC(C)C(=O)O (stereo not given)	inactive: -0.52%
O=C(COc1ccccc1)OC1CN2CCC1CC2 (stereo not given)	inactive: -0.2%
CP(=O)(NC(=O)Nc1ccccc1)Oc1ccccc1 (stereo not given)	inactive: -1.17%
Cc1cc(C)cc(OP(C)(=O)Nc2ccc(SC(F)(F)F)cc2)c1 (stereo not given)	inactive: -0.59%
COP1(=S)c2c(C)nn(CCC#N)c2N=C(c2ccc(F)cc2)N1C (stereo not given)	inactive: -0.56%
Cc1cccc(C)c1OP(C)(=O)Nc1ccc(SC(F)(F)F)cc1 (stereo not given)	inactive: 0.65%
O=C(OC1CN2CCC1CC2)C12CC3CC(CC(C3)C1)C2 (stereo not given)	inactive: 0.19%
Cc1c2c(nc3ccccc13)SC(C(Cl)Cl)C2 (stereo not given)	inactive: -0.3%
CCN(CC)C(=S)SC(NC=O)C(Cl)(Cl)Cl (stereo not given)	inactive: 0.33%
COc1ccc(OP(C)(=O)Nc2cccc(F)c2)cc1 (stereo not given)	inactive: -3.21%
O=[N+]([O-])c1cc([N+](=O)[O-])c(-c2ccn[nH]2)s1	inactive: -0.88%
COc1ccccc1OP(C)(=O)Nc1ccc(C)cc1 (stereo not given)	inactive: -1.1%
Cc1ccc(NP(C)(=O)Oc2ccccc2)c(C)c1 (stereo not given)	inactive: -1.52%
CCOC(=O)c1ccc(NP(C)(=O)Oc2ccccc2)cc1 (stereo not given)	inactive: -1.22%
ClCCSc1nnc(-c2cccnc2)o1	inactive: -3.61%
Cc1ccc2nc3c(c(C)c2c1)CC(C(Cl)Cl)S3 (stereo not given)	inactive: -1.81%
CC(C)(C)c1ccc(OP(C)(=O)Nc2ccc(SC(F)(F)F)cc2)cc1 (stereo not given)	inactive: 2.18%

SMILES	activation
O=[N+]([O-])c1ccc2c(c1)nnn2O	inactive: -1.98%
CC1=NCCc2c1[nH]c1ccccc21.O=[N+]([O-])c1cc([N+](=O)[O-])c(O)c([N+](=O)[O-])c1	inactive: -0.5%
CCOP1(=S)c2c(C)nn(CCC#N)c2N=C(c2ccc(F)cc2)N1C (stereo not given)	inactive: -1.45%
CCOP1(=S)c2c(C)nn(CCC#N)c2N=C(c2ccccc2F)N1C (stereo not given)	inactive: -1.52%
O=P(Nc1nccs1)(c1ccccc1)c1nc2ccccc2s1 (stereo not given)	inactive: -2.6%
CCOP(=O)(Nc1cccc2ccccc12)OCC	inactive: 0.05%
Cc1ccc(C)c(NP(C)(=O)Oc2ccccc2)c1 (stereo not given)	inactive: -0.79%
Cc1cc(C)cc(OP(C)(=O)Nc2ccccn2)c1 (stereo not given)	inactive: -1.38%
Cc1ccc(NCCc2c([N+](=O)[O-])cc([N+](=O)[O-])cc2[N+](=O)[O-])cc1	inactive: -1.1%
CCOC(=O)c1ccc(NP(C)(=O)Oc2cc(C)cc(C)c2)cc1 (stereo not given)	inactive: -0.29%
Cc1cccc(OCC(=O)OC2CN3CCC2CC3)c1 (stereo not given)	inactive: -2.31%
Cc1cc(C)cc(OP(C)(=O)Nc2ccc(C)cc2C)c1 (stereo not given)	inactive: -2.04%
Cc1nc2ccc3ccccc3c2s1.O=[N+]([O-])c1cc([N+](=O)[O-])c(O)c([N+](=O)[O-])c1	inactive: -2.43%
CC1(CBr)Cn2c(nc3ccccc3c2=O)S1 (stereo not given)	inactive: -0.39%
Clc1n[nH]nc1-c1nn[nH][15n]1	inactive: -0.42%
O=P1(Nc2ccccn2)COc2ccccc2OC1	inactive: -1.34%
Cc1ccc(OCC(=O)OC2CN3CCC2CC3)cc1 (stereo not given)	inactive: -1.71%
O=P1(Nc2ccc(Br)cn2)COc2ccccc2OC1	inactive: -1.68%
CP(=O)(Nc1ccc(SC(F)(F)F)cc1)Oc1ccccc1 (stereo not given)	inactive: 0.17%
COc1ccccc1OP(C)(=O)Nc1c(C)cccc1C (stereo not given)	inactive: -3.74%
CN1CCCCC1COC(=O)C1(O)c2ccccc2CCc2ccccc21 (stereo not given)	inactive: 0.67%
O=P1(Nc2ncccn2)COc2ccccc2OC1	inactive: -2.46%

SMILES	activation
COc1cc(C2NCCC3(OCCO3)C2(C)C)cc(OC)c1OC.O=[N+]([O-])c1cc([N+](=O)[O-])c(O)c([N+](=O)[O-])c1 (stereo not given)	inactive: -0.82%
Cc1nn(-c2ccccc2)c2c1P(=O)(N1CCOCC1)N(C)C(c1ccccc1)=N2 (stereo not given)	inactive: 0.79%
C(Cc1nn[nH]n1)Cc1nn[nH]n1	inactive: -0.5%
O=C(OC1CN2CCC1CC2)c1cccc(Cl)c1 (stereo not given)	inactive: -2.44%
CC(=O)NC(SC(=S)N(C)C)C(Cl)(Cl)Cl (stereo not given)	inactive: -3.17%
CN(C)CCOC(=O)C(O)(c1ccccc1)C1CCCCC1 (stereo not given)	inactive: -2.3%
COc1ccc(OP(C)(=O)Nc2cccc(Br)c2)cc1 (stereo not given)	inactive: -2.23%
Cc1ccccc1NP(C)(=O)Nc1ccccc1C	inactive: -1.15%
CP(=O)(Nc1ccc2c(c1)OCCO2)Oc1ccccc1 (stereo not given)	inactive: -0.01%
CCOP(C)(=S)SCC(=O)NC(C)(CC)C(=O)O (stereo not given)	inactive: -0.93%
c1nnnn1CCn1cnnn1	inactive: -2.58%
CC(C)C(=O)NC(Sc1ccccc1)C(Cl)(Cl)Cl (stereo not given)	inactive: -1.92%
O=P(Nc1nccs1)(c1ccccc1)c1ccccc1	inactive: 0.76%
O=C(OCCN1CCN(CCOCc2ccccc2)CC1)C(O)(c1ccccc1)c1ccccc1	inactive: -1.21%
CP(=O)(Nc1ccccc1F)Oc1ccccc1 (stereo not given)	inactive: -0.96%
CC(C)c1ccc(OP(C)(=O)Nc2ccc(SC(F)(F)F)cc2)cc1 (stereo not given)	inactive: -1.01%
O=P1(Nc2nc3ccc(Cl)cc3s2)COc2ccccc2O1 (stereo not given)	inactive: -0.32%
CP(=O)(Nc1ccccc1)Oc1ccc(F)cc1 (stereo not given)	inactive: -2.03%
COC(=O)c1cc2c(s1)N=C(c1ccccc1)N(C)P2(=O)N1CCOCC1 (stereo not given)	inactive: -1.06%
CC(=O)NC(SC(=S)N(CC(C)C)CC(C)C)C(Cl)(Cl)Cl (stereo not given)	inactive: -2.54%
CCN(CC)CCCOC(=O)C(O)(c1ccccc1)C1CCCCC1 (stereo not given)	inactive: -1.8%
